From ChEMBL document CHEMBL1949555, “Piperazine-2,3-dicarboxylic acid derivatives as dual antagonists of NMDA and GluK1-containing kainate receptors” (J Med Chem, 2012)

The chains behind the UniProt entries cited, without tags or fusion partners. Where a name states a change or a piece, a line headed by the entry shows the natural chain unless it says otherwise.
UniProt P39086: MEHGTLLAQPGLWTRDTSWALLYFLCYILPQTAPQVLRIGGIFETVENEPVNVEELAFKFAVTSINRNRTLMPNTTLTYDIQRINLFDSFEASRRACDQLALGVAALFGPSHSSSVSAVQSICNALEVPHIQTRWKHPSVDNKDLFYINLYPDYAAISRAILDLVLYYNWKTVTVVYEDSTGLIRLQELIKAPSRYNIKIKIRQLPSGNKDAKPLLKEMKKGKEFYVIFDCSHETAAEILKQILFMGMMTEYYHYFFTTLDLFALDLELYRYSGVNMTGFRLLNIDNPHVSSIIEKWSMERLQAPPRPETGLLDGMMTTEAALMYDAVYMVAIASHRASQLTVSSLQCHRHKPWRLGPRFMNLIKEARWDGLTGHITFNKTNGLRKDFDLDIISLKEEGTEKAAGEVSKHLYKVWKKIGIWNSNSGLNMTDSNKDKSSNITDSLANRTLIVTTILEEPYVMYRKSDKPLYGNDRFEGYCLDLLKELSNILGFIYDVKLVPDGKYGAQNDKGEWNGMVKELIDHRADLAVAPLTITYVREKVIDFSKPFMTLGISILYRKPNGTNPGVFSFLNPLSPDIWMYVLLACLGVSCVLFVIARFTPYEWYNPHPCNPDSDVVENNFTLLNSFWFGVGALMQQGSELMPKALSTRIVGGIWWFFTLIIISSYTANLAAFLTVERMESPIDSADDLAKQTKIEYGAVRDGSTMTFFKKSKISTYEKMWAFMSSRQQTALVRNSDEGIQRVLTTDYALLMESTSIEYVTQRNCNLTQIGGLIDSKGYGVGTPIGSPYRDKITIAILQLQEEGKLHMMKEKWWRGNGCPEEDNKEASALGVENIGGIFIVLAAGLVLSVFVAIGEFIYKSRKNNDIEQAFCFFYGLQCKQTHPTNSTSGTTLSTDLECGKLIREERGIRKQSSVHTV
UniProt Q00959, whole entry, looked up: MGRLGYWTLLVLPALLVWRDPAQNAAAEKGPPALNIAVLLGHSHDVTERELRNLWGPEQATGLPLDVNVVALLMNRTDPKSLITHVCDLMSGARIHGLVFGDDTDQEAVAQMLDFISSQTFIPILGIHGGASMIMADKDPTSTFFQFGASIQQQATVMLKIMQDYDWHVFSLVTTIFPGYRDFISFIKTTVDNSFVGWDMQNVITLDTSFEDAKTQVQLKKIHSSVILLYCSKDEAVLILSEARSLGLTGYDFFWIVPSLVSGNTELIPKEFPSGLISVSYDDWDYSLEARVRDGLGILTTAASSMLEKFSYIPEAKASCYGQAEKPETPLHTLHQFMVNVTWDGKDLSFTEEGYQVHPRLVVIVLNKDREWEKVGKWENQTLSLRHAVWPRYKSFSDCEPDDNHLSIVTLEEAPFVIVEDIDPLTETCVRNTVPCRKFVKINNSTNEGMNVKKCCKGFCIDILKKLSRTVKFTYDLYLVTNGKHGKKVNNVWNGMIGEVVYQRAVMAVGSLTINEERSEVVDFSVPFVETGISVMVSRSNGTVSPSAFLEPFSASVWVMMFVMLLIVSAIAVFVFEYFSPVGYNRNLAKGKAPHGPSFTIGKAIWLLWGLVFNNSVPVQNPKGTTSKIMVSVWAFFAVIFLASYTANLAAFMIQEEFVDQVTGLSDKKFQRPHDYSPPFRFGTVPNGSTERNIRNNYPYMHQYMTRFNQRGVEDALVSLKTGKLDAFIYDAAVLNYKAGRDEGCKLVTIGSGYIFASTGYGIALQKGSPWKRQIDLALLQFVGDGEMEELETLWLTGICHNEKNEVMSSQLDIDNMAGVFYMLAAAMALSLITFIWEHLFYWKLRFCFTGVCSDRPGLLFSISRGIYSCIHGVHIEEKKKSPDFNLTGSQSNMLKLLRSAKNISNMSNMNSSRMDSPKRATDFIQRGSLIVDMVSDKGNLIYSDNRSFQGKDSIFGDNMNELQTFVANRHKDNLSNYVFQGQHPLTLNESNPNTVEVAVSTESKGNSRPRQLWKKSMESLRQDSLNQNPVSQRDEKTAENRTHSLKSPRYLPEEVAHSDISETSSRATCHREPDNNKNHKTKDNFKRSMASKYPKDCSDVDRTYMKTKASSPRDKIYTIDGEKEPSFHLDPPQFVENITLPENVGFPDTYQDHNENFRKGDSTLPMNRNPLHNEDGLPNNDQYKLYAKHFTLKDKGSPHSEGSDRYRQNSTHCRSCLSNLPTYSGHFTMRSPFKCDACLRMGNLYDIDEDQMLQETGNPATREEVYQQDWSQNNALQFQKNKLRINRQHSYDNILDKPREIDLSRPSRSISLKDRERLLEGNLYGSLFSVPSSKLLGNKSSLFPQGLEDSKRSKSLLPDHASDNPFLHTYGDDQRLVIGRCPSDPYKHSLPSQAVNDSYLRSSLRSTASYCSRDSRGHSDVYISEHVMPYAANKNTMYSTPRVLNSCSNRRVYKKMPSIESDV
UniProt Q00960, whole entry, looked up: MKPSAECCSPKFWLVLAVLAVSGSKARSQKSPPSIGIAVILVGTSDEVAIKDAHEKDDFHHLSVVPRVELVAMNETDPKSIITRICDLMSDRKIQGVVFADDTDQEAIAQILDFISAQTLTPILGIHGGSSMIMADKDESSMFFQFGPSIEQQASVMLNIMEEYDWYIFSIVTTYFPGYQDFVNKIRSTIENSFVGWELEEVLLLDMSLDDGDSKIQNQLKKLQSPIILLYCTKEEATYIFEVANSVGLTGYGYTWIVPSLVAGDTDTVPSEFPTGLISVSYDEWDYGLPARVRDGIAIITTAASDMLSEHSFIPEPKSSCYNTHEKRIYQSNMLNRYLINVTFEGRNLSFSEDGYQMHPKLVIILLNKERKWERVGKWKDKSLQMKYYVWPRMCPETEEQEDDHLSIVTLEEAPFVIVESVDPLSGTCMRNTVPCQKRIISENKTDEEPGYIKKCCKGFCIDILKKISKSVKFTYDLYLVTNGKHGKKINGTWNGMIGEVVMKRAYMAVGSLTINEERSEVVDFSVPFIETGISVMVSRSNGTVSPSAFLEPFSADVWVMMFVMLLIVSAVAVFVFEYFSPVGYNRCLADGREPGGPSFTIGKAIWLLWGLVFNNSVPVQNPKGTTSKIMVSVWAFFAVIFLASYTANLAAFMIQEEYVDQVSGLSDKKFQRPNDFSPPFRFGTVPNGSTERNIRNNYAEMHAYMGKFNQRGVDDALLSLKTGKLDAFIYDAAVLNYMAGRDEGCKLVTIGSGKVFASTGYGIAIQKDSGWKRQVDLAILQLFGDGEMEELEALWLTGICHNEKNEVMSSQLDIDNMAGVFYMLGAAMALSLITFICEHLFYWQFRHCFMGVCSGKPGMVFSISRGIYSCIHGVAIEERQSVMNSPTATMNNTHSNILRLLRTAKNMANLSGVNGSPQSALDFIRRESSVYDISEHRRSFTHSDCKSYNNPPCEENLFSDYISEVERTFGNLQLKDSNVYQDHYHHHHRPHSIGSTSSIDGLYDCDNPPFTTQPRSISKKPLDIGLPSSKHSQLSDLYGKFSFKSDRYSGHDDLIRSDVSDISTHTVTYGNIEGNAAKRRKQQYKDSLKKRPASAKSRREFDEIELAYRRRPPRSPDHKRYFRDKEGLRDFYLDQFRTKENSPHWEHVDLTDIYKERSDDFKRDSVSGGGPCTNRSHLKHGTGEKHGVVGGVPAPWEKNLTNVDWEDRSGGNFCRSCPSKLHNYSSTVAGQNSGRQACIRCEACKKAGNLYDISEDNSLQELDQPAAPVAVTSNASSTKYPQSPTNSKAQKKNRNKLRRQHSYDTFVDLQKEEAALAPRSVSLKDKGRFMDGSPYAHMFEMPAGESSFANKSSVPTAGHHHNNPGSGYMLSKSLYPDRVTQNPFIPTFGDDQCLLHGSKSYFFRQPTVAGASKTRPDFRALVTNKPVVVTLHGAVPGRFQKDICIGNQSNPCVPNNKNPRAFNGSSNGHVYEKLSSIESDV

Columns and labels:
Format in all cases: functional, cell-based
[1] = biological target: Glutamate receptor ionotropic, kainate 1 (Homo sapiens, UniProt P39086); assay: Antagonist activity at human recombinant GluK1 receptor expressed in human HEK293 cells assessed as inhibition of glutamate-stimulated calcium influx by fluorescence assay
Summary of the method: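 HEK293 lines stably expressing homomeric human GluK1(Q) or GluK2(Q), passaged no more than 20 times. Ca2+ influx is read as fluorescence, with concanavalin A present. Test compound is added in a first run, then L-glutamate plus antagonist in a second run (final glutamate 30 μM for GluK1, 10 μM for GluK2). IC50 values are converted to KB. Means ± s.e.m.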

[2] = biological target: Glutamate NMDA receptor; Grin1/Grin2a (Rattus norvegicus) (UniProt P35439+Q00959); assay: Antagonist activity at rat recombinant GluN1/GluN2A receptor expressed in Xenopus laevis oocytes assessed as inhibition of glutamate-induced response at 100 uM by two-electrode voltage-clamp electrophysiology assay; settings: Oocyte
Summary of the method: (§1)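 Rat GluN1a co-expressed with GluN2A, 2B, 2C or 2D in Xenopus oocytes. Two-electrode voltage clamp at −60 mV in buffer of 116 mM NaCl, 2 mM KCl, 0.3 mM BaCl2, 5 mM HEPES, pH 7.4. Response is the steady plateau evoked by bath-applied 10 μM L-glutamate plus 10 μM glycine. Read-out is percent antagonism by 100 μM test compound.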

[3] = biological target: Glutamate NMDA receptor; Grin1/Grin2b (Rattus norvegicus) (UniProt P35439+Q00960); assay: Antagonist activity rat recombinant GluN1/GluN2B receptor expressed in Xenopus laevis oocytes assessed as inhibition of glutamate-induced response at 100 uM by two-electrode voltage-clamp electrophysiology assay; settings: Oocyte; summary of the method: as §1

Row | SMILES | Kb [1] [µM] | inhibition [2] [%] | inhibition [3] [%]
1 | O=C(O)[C@H]1NCCN(C(=O)c2ccc(C#Cc3ccccc3)cc2)[C@H]1C(=O)O (relative stereo) | 13.4 | – | –
2 | O=C(O)[C@H]1NCCN(C(=O)c2ccc3cc(-c4ccccc4)ccc3c2)[C@H]1C(=O)O (relative stereo) | – | 30.3 | 37.1
